{"source": "patent US20040224958A1", "about": "“Pyridopyrimidinone derivatives for treatment of neurodegenerative disease” (priority 2000, published 2004)", "data": [{"compound": "O=c1ccc2cnc(Nc3ccccc3)nc2n1CCCOCc1ccccc1", "note": "[Example 38, 8-(3-Benzyloxypropyl)-2-phenylamino-8H-pyrido[2,3-d]pyrimidin-7-one]", "values": [{"measurement": "melting point", "value": "133 to 135", "unit": "°C"}]}]}
